# Measured affinities in a library of Ab-95 light chain variants

The measurements come from Engelhart et al. 2022 (doi:10.1038/s41597-022-01779-4) through the FLAb antibody collection.

All variants were tested on one target, the spike HR2 peptide PDVDLGDISGINAS (SARS-CoV-2).

Ab-95 is the parent antibody, in scFv form: VH, then the linker GGGGSGGGGSGGGGS, then VL. The heavy chain is unchanged in all variants.
VH: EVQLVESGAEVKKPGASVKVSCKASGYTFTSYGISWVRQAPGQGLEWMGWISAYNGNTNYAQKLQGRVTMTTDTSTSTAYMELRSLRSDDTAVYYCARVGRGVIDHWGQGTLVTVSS
VL: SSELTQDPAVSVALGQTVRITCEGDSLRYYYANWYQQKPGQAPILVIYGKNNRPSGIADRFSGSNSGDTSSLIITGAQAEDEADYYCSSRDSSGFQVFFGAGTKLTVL

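The parent was found by panning a naive human phage display library on the peptide. In library AAYL52, one, two or three CDR residues were substituted; doubles and triples were drawn at random. Affinity was read by AlphaSeq, a pooled yeast mating assay with surface-displayed partners. Binding brings cells together so that they mate, and sequencing counts the barcode pairs among the diploids. Scores were corrected for input abundance and mapped to Kd with protein pairs of known affinity run in the same pool. Each pool was mated in three replicate cultures.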

Changes read parent residue, position, new residue, counted from the first residue of the VL shown. Every variant below is changed at S88 of the VL (sequential numbering). Kd is apparent (estimated from mating counts) and averaged on the log scale over replicates with a signal. Smaller is tighter. Where no diploid with the target was found in any replicate, the entry reads "nd": below detection, most likely a poor binder, though not proof of it. The list is sorted by this average, lowest first, undetected variants last. For reference, the parent read 200 nM as the reference entry and 180 nM as a member of this library.

With Y31M+S88G+Q96T the result was 33 nM (3 of 3 replicates).
With G24Y+S88Q+S89A the result was 130 nM (3 of 3 replicates).
With L27N+S88T+F98C the result was 130 nM (3 of 3 replicates).
With Y30S+N33C+S88M the result was 150 nM (2 of 3 replicates).
With N52E+S88P+Q96D the result was 170 nM (3 of 3 replicates).
With D25P+N51G+S88W the result was 270 nM (3 of 3 replicates).
With D25E+S88A+S89T the result was 270 nM (3 of 3 replicates).
With Y30F+S88F+R90C the result was 410 nM (3 of 3 replicates).
With S88Q+D91L+V97M the result was 500 nM (3 of 3 replicates).
With E23Q+S88V+F98Q the result was 1.2 µM (3 of 3 replicates).
With S88M+G94F+F98K the result was 1.4 µM (3 of 3 replicates).
With K50S+S88D+R90K the result was 1.6 µM (3 of 3 replicates).
With N33K+S88Q+S89G the result was 2.1 µM (1 of 3 replicates).
With S88Y+R90D+Q96L the result was 2.7 µM (3 of 3 replicates).
With S26P+S88K+D91H the result was 3.3 µM (3 of 3 replicates).
With R28E+S88T+Q96S the result was 4.5 µM (2 of 3 replicates).
With S88Q+D91Q+F95K the result was 4.5 µM (1 of 3 replicates).
With N52D+S88H+S93K the result was 7.0 µM (1 of 3 replicates).
With G49M+S88L+S93V the result was 7.1 µM (1 of 3 replicates).
With Y31H+K50W+S88W the result was 19 µM (3 of 3 replicates).
With N33F+S88N+F95E the result was 20 µM (3 of 3 replicates).
With L27K+A32R+S88Q the result was 21 µM (1 of 3 replicates).
With S26C+R53W+S88R the result was 23 µM (2 of 3 replicates).
With K50M+N51V+S88F the result was 78 µM (2 of 3 replicates).
With Y30F+S88V+Q96L the result was 84 µM (1 of 3 replicates).
With K50W+S88W+F98V the result was 87 µM (2 of 3 replicates).
With L27S+P54S+S88E the result was 120 µM (1 of 3 replicates).
With S26I+N52M+S88D the result was nd (0 of 3 replicates).
With G49S+P54Q+S88D the result was nd (0 of 3 replicates).
With S88V+R90K+D91E the result was nd (0 of 3 replicates).
With E23T+R28T+S88L the result was nd (0 of 3 replicates).

The closing 4 entries, repeated:

changes	Kd	seen in
S26I+N52M+S88D	nd	0/3
G49S+P54Q+S88D	nd	0/3
S88V+R90K+D91E	nd	0/3
E23T+R28T+S88L	nd	0/3

Background: pairings of library AAYL52 with three empty control strains gave a value in 28% of cases (median 8.2 µM, 5th percentile 800 nM). Values in that range, when seen in few replicates, are hard to tell from nonspecific mating.